Values of other authors, collected in US20250170078A1, “STABLE PHARMACEUTICAL COMPOSITIONS OF HYDROXYUREA” (Slayback Pharma LLC., priority 2022, published 2025).

Tested on: rat
Conditions: compared with hydroxycarbamide (hydroxyurea)

## NC(=O)NOC(N)=O [carbamoyloxyurea]
  risk in rat toxicology studies: does not pose a risk over and above hydroxycarbamide
